ChEMBL document CHEMBL1145679, “Perhydrogenation of tabersonine, ans Aspidiosperma indole alkaloid” (J Nat Prod, 1997)

Sequences of proteins named here, by UniProt entry; tags and fusion partners are left off. A change or cut given only in a name is not applied to a line headed by its entry.
UniProt P22086: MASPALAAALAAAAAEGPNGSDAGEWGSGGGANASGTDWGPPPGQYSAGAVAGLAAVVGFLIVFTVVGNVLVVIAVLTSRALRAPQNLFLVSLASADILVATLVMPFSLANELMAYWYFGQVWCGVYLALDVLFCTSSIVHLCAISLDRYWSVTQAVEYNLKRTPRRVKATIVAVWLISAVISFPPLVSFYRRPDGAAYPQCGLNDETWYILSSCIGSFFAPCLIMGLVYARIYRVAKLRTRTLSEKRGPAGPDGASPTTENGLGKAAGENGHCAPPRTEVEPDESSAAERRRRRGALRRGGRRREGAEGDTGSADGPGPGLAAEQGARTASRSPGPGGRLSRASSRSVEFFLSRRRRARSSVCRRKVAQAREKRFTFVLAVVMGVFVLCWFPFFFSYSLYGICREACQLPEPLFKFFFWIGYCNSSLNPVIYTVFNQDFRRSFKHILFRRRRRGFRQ
UniProt P19328: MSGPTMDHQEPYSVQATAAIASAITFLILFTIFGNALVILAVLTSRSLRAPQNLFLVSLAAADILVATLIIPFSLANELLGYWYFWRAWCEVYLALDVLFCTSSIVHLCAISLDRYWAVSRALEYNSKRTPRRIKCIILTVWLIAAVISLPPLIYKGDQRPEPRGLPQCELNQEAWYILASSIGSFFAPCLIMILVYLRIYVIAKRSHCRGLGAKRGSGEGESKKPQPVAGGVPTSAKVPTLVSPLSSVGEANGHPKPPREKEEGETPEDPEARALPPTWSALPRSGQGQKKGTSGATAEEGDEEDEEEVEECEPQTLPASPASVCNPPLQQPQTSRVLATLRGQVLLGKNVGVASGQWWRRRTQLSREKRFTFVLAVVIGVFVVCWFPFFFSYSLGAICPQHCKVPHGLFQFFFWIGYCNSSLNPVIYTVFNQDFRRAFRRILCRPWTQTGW
UniProt P22909: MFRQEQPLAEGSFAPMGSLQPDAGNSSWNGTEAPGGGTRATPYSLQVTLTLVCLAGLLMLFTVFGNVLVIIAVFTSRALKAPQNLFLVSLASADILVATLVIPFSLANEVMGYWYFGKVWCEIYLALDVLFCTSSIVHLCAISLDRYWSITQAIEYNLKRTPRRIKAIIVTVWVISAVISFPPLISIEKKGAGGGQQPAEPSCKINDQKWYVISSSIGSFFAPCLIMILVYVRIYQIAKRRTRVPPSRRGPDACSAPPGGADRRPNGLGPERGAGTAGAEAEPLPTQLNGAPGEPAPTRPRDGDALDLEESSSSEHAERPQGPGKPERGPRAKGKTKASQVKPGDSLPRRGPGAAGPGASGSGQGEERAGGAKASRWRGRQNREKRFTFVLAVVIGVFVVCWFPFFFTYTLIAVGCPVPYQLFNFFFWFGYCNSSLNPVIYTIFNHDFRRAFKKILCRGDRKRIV

Biological target: Adrenergic receptor alpha-2 (Rattus norvegicus, UniProt P22086+P19328+P22909)
Assay: Displacement of radioligand from rat alpha2 adrenergic receptor by liquid scintillation spectrometry

Ki: 160 nM
SMILES: CNC[C@H](O)c1ccc(O)c(O)c1 [EPINEPHRINE]
